# This is a selection; strong and weak results do not stand in their true shares. Active and inactive are the calls of the source. Calls follow the shape of the dose curve; as a rule, active = well fitted activation curve with a large enough effect; inconclusive = small, poorly fitted or top-dose-only effect; inactive = flat fitted curve, though single readings scatter.
# Experiment: qHTS of Nrf2 Activators; also: % of control where 0% means no effect; nearly all actives have a fitted effect of over 65% in size
# Conditions: AREc32 ARE-luciferase reporter (MCF7-derived line), luminescence, 24 h; at 46.1 µM (top of the series) unless noted
# Outline: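 Luminescent ARE reporter assay in AREc32_Fluc cells: overnight plating at 37 deg C, 24 hr compound incubation, Steady-Glo added, 30 min RT before reading.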
row,SMILES,activation
1,NC(=O)Nc1ccc([As](=O)(O)O)cc1,inactive: 0.678%
2,O=C(O)COc1ccc([As](=O)(O)O)cc1[N+](=O)[O-],inactive: -0.853%
3,Nc1ccccc1[As](=O)(O)c1ccccc1,inactive: -0.467%
4,O=P(Nc1nccs1)(Oc1ccccc1)Oc1ccccc1,inactive: -1%
5,CCOP1(=S)c2c(C)nn(CCC#N)c2N=C(c2ccccc2F)N1C (stereo unspecified),inactive: -0.192%
6,O=[N+]([O-])c1cc([N+](=O)[O-])c(-c2ccn[nH]2)s1,inactive: -1.05%
7,CCN(CC)C(=S)SC(NC=O)C(Cl)(Cl)Cl (stereo unspecified),inactive: 2.01%
8,O=C(OC1CN2CCC1CC2)c1cccc2[nH]cnc12 (stereo unspecified),inactive: -0.863%
9,CC(C)NC(=O)NP(=O)(Oc1ccccc1)Oc1ccccc1,inactive: -0.474%
10,ClCCSc1nnc(-c2cccnc2)o1,inactive: -0.198%
11,CC(C)c1ccc(OP(=O)(Nc2ccccn2)Oc2ccccc2F)cc1 (stereo unspecified),inactive: -0.123%
12,COC(=O)C1(C)COP(=O)(N2CCCCCC2)OC1 (stereo unspecified),inactive: 0.255%
13,Cc1ccc(OP(=O)(Nc2ccc([N+](=O)[O-])cn2)Oc2ccc(C)cc2)cc1,inactive: -0.399%
14,[N-]=[N+]=NC1CCCCC1NC(=O)c1cc([N+](=O)[O-])cc([N+](=O)[O-])c1 (stereo unspecified),inactive: -0.0083%
15,Cc1ccc2nc3c(c(C)c2c1)CC(C(Cl)Cl)S3 (stereo unspecified),inactive: 5.23%
16,COc1cc(C(=O)NCC2(N3CCOCC3)CCCCC2)ccc1OCC(C)C,inactive: -1.11%
17,O=[N+]([O-])c1ccc(-c2cc([N+](=O)[O-])c(O)c([N+](=O)[O-])c2)cc1,inactive: 4.21%
18,O=[As](O)(c1ccc(O)cc1)c1ccccc1O,inactive: 0.121%
19,C[As](=O)(O)c1cccc(C(=O)O)c1,inactive: -0.718%
20,O=[N+]([O-])c1cc(Oc2ccc([N+](=O)[O-])cc2C(F)(F)F)cc([N+](=O)[O-])c1,inactive: 3.94%
21,COc1ccc(N/C(=N/P(=O)(N2CCOCC2)N2CCOCC2)N2CCOCC2)cc1,inactive: 0.175%
22,O=P1(N(CCCl)CCCl)Nc2ccccc2N1,inactive: 3.6%
23,O=P1(N(CCCl)CCCl)OCCCN1CCCl (stereo unspecified),inactive: -0.414%

row,SMILES,activation
1,COc1cc(I)ccc1[As](=O)(O)O,inactive: -0.0913%
2,COc1ccc2nc(NP(=O)(c3ccccc3)c3ccccc3)sc2c1,inactive: -0.0589% [at 9.22 µM]
3,Cc1c2c(nc3ccccc13)SC(C(Cl)Cl)C2 (stereo unspecified),inactive: 9.83%
4,Cc1cc(=O)[nH]c(N[N+](=O)[O-])n1,inactive: 0.0044%
5,O=C(OC1CN2CCC1CC2)C12CC3CC(CC(C3)C1)C2 (stereo unspecified),inactive: 0.113%
6,CCC(C)N(CC(C)C)C(=S)SC(NC(C)=O)C(Cl)(Cl)Cl (stereo unspecified),inactive: 3.3%
7,O=C(OC1CN2CCC1CC2)c1cccc([N+](=O)[O-])c1 (stereo unspecified),inactive: 0.173%
8,CCOC(=O)c1ccc(NC(=O)C(C)(CCl)SC)cc1 (stereo unspecified),inactive: 2.93%
9,O=C(O)C(=O)c1ccc(N(CCCl)CCCl)cc1,inactive: -0.765%
10,O=C(Nc1ccncc1[N+](=O)[O-])c1ccc([N+](=O)[O-])cc1[N+](=O)[O-],inactive: 0.858%
11,O=C(COc1ccccc1)OC1CN2CCC1CC2 (stereo unspecified),inactive: 0.312%
12,COC(=O)C1(C)COP(=O)(N2CCCC2)OC1 (stereo unspecified),inactive: -0.43%
13,COP1(=S)c2c(C)nn(CCC#N)c2N=C(c2ccc(F)cc2)N1C (stereo unspecified),inactive: 0.509%
14,Cc1cc(SC(NC=O)C(Cl)(Cl)Cl)ncn1 (stereo unspecified),inactive: 17%
15,O=P(Nc1ccccn1)(c1cccc2ccccc12)c1cccc2ccccc12,inactive: 0.4%
16,O=[N+]([O-])c1ccc(Nc2ccc(Oc3ccc([N+](=O)[O-])cc3[N+](=O)[O-])cc2)c([N+](=O)[O-])c1,inactive: -0.423%
17,CCOC(=O)Nc1cccc([As](=O)(O)O)c1,inactive: -0.571%
18,COP(=O)(OC)N1CC1c1ccccc1 (stereo unspecified),inactive: -0.118%
19,Cc1cc(SC(NC(=O)c2ccccc2)C(Cl)(Cl)Cl)nc(C(C)C)n1 (stereo unspecified),inactive: 3.46%
20,CCCCOc1ccc(C(=O)NCC2(N3CCCCC3)CCCCC2)cc1OC,inactive: 0.145%
21,O=C(O)C(O)c1ccc(N(CCCl)CCCl)cc1 (stereo unspecified),inactive: 1.66%
22,CCOC(=O)Nc1ccc([As](=O)(O)O)c(O)c1,inactive: 0.0692%
23,CC1CCNP(=O)(N(CCCl)CCCl)O1 (stereo unspecified),inactive: 0.258%

# — PubChem BioAssay AID624171 (National Center for Advancing Translational Sciences (NCATS), 2012)
